Assay [1] concerns the target T1, B7H3 (human, UniProt Q5ZPR3 29-466, limits assumed).
T1 sequence (looked up): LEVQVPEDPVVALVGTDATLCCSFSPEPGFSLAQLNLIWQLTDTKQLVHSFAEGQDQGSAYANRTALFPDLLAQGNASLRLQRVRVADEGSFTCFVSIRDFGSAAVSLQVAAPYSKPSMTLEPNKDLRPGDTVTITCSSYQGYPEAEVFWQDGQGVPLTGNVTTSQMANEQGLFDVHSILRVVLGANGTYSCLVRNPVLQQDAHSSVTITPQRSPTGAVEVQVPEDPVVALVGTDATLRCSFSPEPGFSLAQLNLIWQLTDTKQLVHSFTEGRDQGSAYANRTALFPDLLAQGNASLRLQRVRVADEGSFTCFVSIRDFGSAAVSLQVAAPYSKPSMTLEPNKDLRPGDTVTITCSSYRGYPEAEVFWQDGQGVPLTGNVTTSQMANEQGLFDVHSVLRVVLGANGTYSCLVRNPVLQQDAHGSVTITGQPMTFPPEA
Nature of the assay: ELISA or FCM (Example 2).

Amino acid sequences for entries named in this document (tags omitted). Residues count along the entry.
UniProt P25942, 21-193 limits assumed: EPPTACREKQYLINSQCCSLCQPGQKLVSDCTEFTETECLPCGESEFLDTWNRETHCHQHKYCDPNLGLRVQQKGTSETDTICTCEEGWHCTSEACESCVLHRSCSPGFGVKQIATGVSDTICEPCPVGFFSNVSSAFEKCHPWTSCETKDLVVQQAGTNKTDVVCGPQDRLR

Assay [2] concerns the target T2, B7H3 (UniProt Q5ZPR3 29-466, limits assumed).
T2 sequence (looked up): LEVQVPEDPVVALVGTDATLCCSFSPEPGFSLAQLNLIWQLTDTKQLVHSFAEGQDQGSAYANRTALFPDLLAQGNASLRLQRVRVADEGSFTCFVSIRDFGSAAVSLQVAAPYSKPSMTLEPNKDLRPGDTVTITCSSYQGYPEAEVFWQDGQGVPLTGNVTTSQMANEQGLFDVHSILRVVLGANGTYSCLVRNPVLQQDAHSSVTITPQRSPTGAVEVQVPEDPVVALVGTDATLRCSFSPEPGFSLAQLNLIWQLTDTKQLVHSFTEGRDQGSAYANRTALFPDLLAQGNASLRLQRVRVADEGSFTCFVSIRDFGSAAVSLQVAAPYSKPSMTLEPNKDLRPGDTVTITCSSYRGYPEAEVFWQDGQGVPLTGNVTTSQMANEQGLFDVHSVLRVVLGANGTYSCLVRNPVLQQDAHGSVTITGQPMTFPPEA
Nature of the assay: FCM or ELISA (graded summary table).

Another assay deals with T3, CD40 (human, UniProt P25942, in part).
T3 construct: In the reporter assay it is whole, on GS-H2-huCD40 cells; also called huCD40
In words: CD40 binding (method not given).

B1: Ly2139 (other)
chain 1: QVQLVQSGAEVKKPGASVKVSCKASGYTFTSYVMHWVRQKPGQGLEWIGYINPYNEGTESTDKFKGRATMTSDKSTSTVYMELSSLRSEDTAVYYCASIYYGYEGTYFGVWGQGTLVTVSSASTKGPSVFPLAPSSKSTSGGTAALGCLVKDYFPEPVTVSWNSGALTSGVHTFPAVLQSSGLYSLSSVVTVPSSSLGTQTYICNVNHKPSNTKVDKKVEPKSCGGGGSEVQLVESGGGLVQPGGSLRLSCAASGFTFSTYAMNWVRQAPGKGLEWVGRIRSKYNNYATYYADSVKGRFTISRDDSKNSLYLQMNSLKTEDTAVYYCVRHGNFGNSYVSWFAYWGQGTLVTVSSGGGGSDKTHTCPPCPAPEAAGPSVFLFPPKPKDTLMISRTPEVTCVVVDVSHEDPEVKFNWYVDGVEVHNAKTKPREEQYNSTYRVVSVLTVLHQDWLNGKEYKCKVSNKALPAPIEKTISKAKGQPREPQVYTLPPSREEMTKNQVSLWCLVKGFYPSDIAVEWESNGQPENNYKTTPPVLDSDGSFFLYSKLTVDKSRWQQGNVFSCSVMHEALHNHYTQKSLSLSPGGGGGSGGGGSGGGGSGGGGSQVQLVQSGAEVKKPGASVKVSCKASGYTFTSYYIHWVRQAPGQGLEWIGCIYPGNVNTNYNEKFKDRATLTVDTSISTAYMELSRLRSDDTAVYFCTRSHYGLDWNFDVWGQGTTVTVSS
chain 2: QVQLVQSGAEVKKPGASVKVSCKASGYTFTSYVMHWVRQKPGQGLEWIGYINPYNEGTESTDKFKGRATMTSDKSTSTVYMELSSLRSEDTAVYYCASIYYGYEGTYFGVWGQGTLVTVSSASTKGPSVFPLAPSSKSTSGGTAALGCLVKDYFPEPVTVSWNSGALTSGVHTFPAVLQSSGLYSLSSVVTVPSSSLGTQTYICNVNHKPSNTKVDKKVEPKSCGGGGSQAVVTQEPSLTVSPGGTVTLTCRSSTGAVTTSNYANWVQQKPGQAPRGLIGGTNKRAPWTPARFSGSLLGGKAALTITGAQAEDEADYYCALWYSNLWVFGGGTKLTVLGGGGSDKTHTCPPCPAPEAAGPSVFLFPPKPKDTLMISRTPEVTCVVVDVSHEDPEVKFNWYVDGVEVHNAKTKPREEQYNSTYRVVSVLTVLHQDWLNGKEYKCKVSNKALPAPIEKTISKAKGQPREPQVYTLPPSREEMTKNQVSLSCAVKGFYPSDIAVEWESNGQPENNYKTTPPVLDSDGSFFLVSKLTVDKSRWQQGNVFSCSVMHEALHNRFTQKSLSLSPGGGGGSGGGGSGGGGSGGGGSDIQMTQSPSSLSASVGDRVTITCHASQNIYVWLNWYQQKPGKAPKLLIYKASNLHTGVPSRFSGSGSGTDFTLTISSLQPEDFATYYCQQGQTYPYTFGGGTKVEIK
light: EIVLTQSPATLSLSPGERATLSCRASSSVSYMHWYQQKPGQAPRPWIYATSNLASGIPARFSGSRSGTDYTLTISSLEPEDFAVYYCQQWSSNTLTFGGGTKVEIKRTVAAPSVFIFPPSDEQLKSGTASVVCLLNNFYPREAKVQWKVDNALQSGNSQESVTEQDSKDSTYSLSSTLTLSKADYEKHKVYACEVTHQGLSSPVTKSFNRGEC
notes: Tri-specific antibody: B7H3 Fabs, central CD3 Fv, terminal CD28 Fv; Flexible linker is G4S
For B1, the binding result with B7H3 [1] was “binds”.

B2: Ly2128 (other)
chain 1: QVQLVQSGAEVKKPGASVKVSCKASGYTFTSYVMHWVRQKPGQGLEWIGYINPYNEGTESTDKFKGRATMTSDKSTSTVYMELSSLRSEDTAVYYCASIYYGYEGTYFGVWGQGTLVTVSSASTKGPSVFPLAPSSKSTSGGTAALGCLVKDYFPEPVTVSWNSGALTSGVHTFPAVLQSSGLYSLSSVVTVPSSSLGTQTYICNVNHKPSNTKVDKKVEPKSCGGGGSGGGGSGGGGSGGGGSEVQLVESGGGLVQPGGSLRLSCAASGFTFSTYAMNWVRQAPGKGLEWVGRIRSKYNNYATYYADSVKGRFTISRDDSKNSLYLQMNSLKTEDTAVYYCVRHGNFGNSYVSWFAYWGQGTLVTVSSGGGGSDKTHTCPPCPAPEAAGPSVFLFPPKPKDTLMISRTPEVTCVVVDVSHEDPEVKFNWYVDGVEVHNAKTKPREEQYNSTYRVVSVLTVLHQDWLNGKEYKCKVSNKALPAPIEKTISKAKGQPREPQVYTLPPSREEMTKNQVSLWCLVKGFYPSDIAVEWESNGQPENNYKTTPPVLDSDGSFFLYSKLTVDKSRWQQGNVFSCSVMHEALHNHYTQKSLSLSPGGGGGSGGGGSGGGGSGGGGSQVQLVQSGAEVKKPGASVKVSCKASGYTFTSYYIHWVRQAPGQGLEWIGCIYPGNVNTNYNEKFKDRATLTVDTSISTAYMELSRLRSDDTAVYFCTRSHYGLDWNFDVWGQGTTVTVSS
chain 2: QVQLVQSGAEVKKPGASVKVSCKASGYTFTSYVMHWVRQKPGQGLEWIGYINPYNEGTESTDKFKGRATMTSDKSTSTVYMELSSLRSEDTAVYYCASIYYGYEGTYFGVWGQGTLVTVSSASTKGPSVFPLAPSSKSTSGGTAALGCLVKDYFPEPVTVSWNSGALTSGVHTFPAVLQSSGLYSLSSVVTVPSSSLGTQTYICNVNHKPSNTKVDKKVEPKSCGGGGSGGGGSGGGGSGGGGSQAVVTQEPSLTVSPGGTVTLTCRSSTGAVTTSNYANWVQQKPGQAPRGLIGGTNKRAPWTPARFSGSLLGGKAALTITGAQAEDEADYYCALWYSNLWVFGGGTKLTVLGGGGSDKTHTCPPCPAPEAAGPSVFLFPPKPKDTLMISRTPEVTCVVVDVSHEDPEVKFNWYVDGVEVHNAKTKPREEQYNSTYRVVSVLTVLHQDWLNGKEYKCKVSNKALPAPIEKTISKAKGQPREPQVYTLPPSREEMTKNQVSLSCAVKGFYPSDIAVEWESNGQPENNYKTTPPVLDSDGSFFLVSKLTVDKSRWQQGNVFSCSVMHEALHNRFTQKSLSLSPGGGGGSGGGGSGGGGSGGGGSDIQMTQSPSSLSASVGDRVTITCHASQNIYVWLNWYQQKPGKAPKLLIYKASNLHTGVPSRFSGSGSGTDFTLTISSLQPEDFATYYCQQGQTYPYTFGGGTKVEIK
light: EIVLTQSPATLSLSPGERATLSCRASSSVSYMHWYQQKPGQAPRPWIYATSNLASGIPARFSGSRSGTDYTLTISSLEPEDFAVYYCQQWSSNTLTFGGGTKVEIKRTVAAPSVFIFPPSDEQLKSGTASVVCLLNNFYPREAKVQWKVDNALQSGNSQESVTEQDSKDSTYSLSSTLTLSKADYEKHKVYACEVTHQGLSSPVTKSFNRGEC
notes: Tri-specific antibody B7H3 (two Fabs) / CD3 (central Fv) / CD28 (terminal Fv)
Consider B2, for which the binding result with B7H3 [2] is recorded as “binds”.

B3: Ly2121 (other)
chain 1: QVQLVQSGAEVKKPGASVKVSCKASGYTFTSYVMHWVRQKPGQGLEWIGYINPYNEGTESTDKFKGRATMTSDKSTSTVYMELSSLRSEDTAVYYCASIYYGYEGTYFGVWGQGTLVTVSSASTKGPSVFPLAPSSKSTSGGTAALGCLVKDYFPEPVTVSWNSGALTSGVHTFPAVLQSSGLYSLSSVVTVPSSSLGTQTYICNVNHKPSNTKVDKKVEPKSCGGGGSGGGGSGGGGSGGGGSQVQLVQSGAEVKKPGASVKVSCKASGYTFTGYYMHWVRQAPGQGLEWMGWINPDSGGTNYAQKFQGRVTMTRDTSISTAYMELNRLRSDDTAVYYCARDQPLGYCTNGVCSYFDYWGQGTLVTVSSGGGGSDKTHTCPPCPAPEAAGPSVFLFPPKPKDTLMISRTPEVTCVVVDVSHEDPEVKFNWYVDGVEVHNAKTKPREEQYNSTYRVVSVLTVLHQDWLNGKEYKCKVSNKALPAPIEKTISKAKGQPREPQVYTLPPSREEMTKNQVSLWCLVKGFYPSDIAVEWESNGQPENNYKTTPPVLDSDGSFFLYSKLTVDKSRWQQGNVFSCSVMHEALHNHYTQKSLSLSPGGGGGSGGGGSGGGGSGGGGSQVTLKESGPALVKPTQTLTLTCTFSGFSLSTSGTCVSWIRQPPGKALEWLATICWEDSKGYNPSLKSRLTISKDTSKNQAVLTMTNMDPVDTATYYCARREDSGYFWFPYWGQGTLVTVSS
chain 2: QVQLVQSGAEVKKPGASVKVSCKASGYTFTSYVMHWVRQKPGQGLEWIGYINPYNEGTESTDKFKGRATMTSDKSTSTVYMELSSLRSEDTAVYYCASIYYGYEGTYFGVWGQGTLVTVSSASTKGPSVFPLAPSSKSTSGGTAALGCLVKDYFPEPVTVSWNSGALTSGVHTFPAVLQSSGLYSLSSVVTVPSSSLGTQTYICNVNHKPSNTKVDKKVEPKSCGGGGSGGGGSGGGGSGGGGSDIQMTQSPSSVSASVGDRVTITCRASQGIYSWLAWYQQKPGKAPNLLIYTASTLQSGVPSRFSGSGSGTDFTLTISSLQPEDFATYYCQQANIFPLTFGGGTKVEIKGGGGSDKTHTCPPCPAPEAAGPSVFLFPPKPKDTLMISRTPEVTCVVVDVSHEDPEVKFNWYVDGVEVHNAKTKPREEQYNSTYRVVSVLTVLHQDWLNGKEYKCKVSNKALPAPIEKTISKAKGQPREPQVYTLPPSREEMTKNQVSLSCAVKGFYPSDIAVEWESNGQPENNYKTTPPVLDSDGSFFLVSKLTVDKSRWQQGNVFSCSVMHEALHNRFTQKSLSLSPGGGGGSGGGGSGGGGSGGGGSNIQMTQSPSSLSASVGDRVTITCKAGQNVNNYLAWYQQKPGKAPKVLIFNANSLQTGVPSRFSGSGSGTDFTLTISSLQPEDFATYYCQQYNSWPTFGGGTKVEIK
light: EIVLTQSPATLSLSPGERATLSCRASSSVSYMHWYQQKPGQAPRPWIYATSNLASGIPARFSGSRSGTDYTLTISSLEPEDFAVYYCQQWSSNTLTFGGGTKVEIKRTVAAPSVFIFPPSDEQLKSGTASVVCLLNNFYPREAKVQWKVDNALQSGNSQESVTEQDSKDSTYSLSSTLTLSKADYEKHKVYACEVTHQGLSSPVTKSFNRGEC
notes: Tri-specific antibody: B7H3 Fabs, central CD40 Fv, terminal PD-1 Fv
In the assay with CD40, B3 showed an EC50 of 1.68 µg/mL.

The values are drawn from patent US20250388669A1 (published 2025).
